Laboratory results from BindingDB's records for doi:10.1021/jm021012t (F. Hoffmann-La Roche, 2003).

Assay: Inhibition of P-glycoprotein using calcein-AM assay transfected in porcine PBCEC

IC50: 950 nM
SMILES: COC(=O)C1C(C)=NC(C)=C(C(=O)OCCN(C)Cc2ccccc2)C1c1cccc([N+](=O)[O-])c1 (stereo unspecified) [Cardene]
